# Test results published in patent US10149876B2, “Tripterygium wilfordii extracts to overcome chemotherapy resistance” (WESTERN UNIVERSITY OF HEALTH SCIENCES, priority 2012, dated 2018).
# Like-named read-outs stand apart in the source and are kept apart here.
# Key:
# Assay type in all cases: cell-based, human
# [1] = system: BT474 cells; assay: SRB cell viability assay, Herceptin-sensitive BT474 cells; details: no sensitizing agent added
# Method: Cell culture of the above cell lines was performed as described in Example 2, except that 5,000, rather than 3,000 cells were plated per well for the K562, K562/Dox, BT474, SkBr3 lines.
# Table 17 also contains the serially-diluted concentrations of drugs that each cell line was tested against.
# [2] = system: BT474/Her cells; assay: SRB cell viability assay, Herceptin-resistant BT474/Her cells; details: 72 h, no LGT-E pre-treatment, background = 0.047
# [3] = system: BT474-TxR cells; assay: SRB cell viability assay, Herceptin-resistant BT474-TxR cells; details: for mean A at 565 nm: 72 h, background = 0.045
substance,measurement,setting,value
trastuzumab [Herceptin ®],IC50 of drug when cells treated with drug only,[1],(523 μg/ml)
same,IC50,[1]; read-out: IC50 of drug when cells treated with drug only,3.59 µM
same,mean A at 565 nm,[2]; Trastuzumab 0.001 μM,2.352
same,mean A at 565 nm,[2]; Trastuzumab 0.03 μM,2.204
same,mean A at 565 nm,[2]; Trastuzumab 0.1 μM,2.246
same,mean A at 565 nm,[2]; Trastuzumab 0.3 μM,2.259
same,mean A at 565 nm,[2]; Trastuzumab 1 μM,2.205
same,mean A at 565 nm,[2]; Trastuzumab 3 μM,2.113
same,mean A at 565 nm,[2]; Trastuzumab 10 μM,2.143
same,mean A at 565 nm,[2]; Trastuzumab 30 μM,2.119
same,IC50 of drug when cells pre-treated with Chemosensitizing Agent before drug treatment,"[3]; Herceptin, BT474-TxR, LGT-E […] pre-treatment",(4366 μg/ml)
same,IC50,"[3]; Herceptin, BT474-TxR, LGT-E […] pre-treatment, read-out: IC50 of drug when cells pre-treated with Chemosensitizing Agent before drug treatment",30 µM
same,IC50 of drug when cells treated with drug only,"[3]; Herceptin, BT474-TxR, line of LGT-E […]",(4366 μg/ml)
same,IC50,"[3]; Herceptin, BT474-TxR, line of LGT-E […], read-out: IC50 of drug when cells treated with drug only",30 µM
same,mean A at 565 nm,"[3]; Trastuzumab 0.001 μM, no LGT-E pre-treatment",2.029
same,mean A at 565 nm,"[3]; Trastuzumab 0.001 μM, pre-treated with 13 μg/ml LGT-E",1.887
same,mean A at 565 nm,"[3]; Trastuzumab 0.2 μM, no LGT-E pre-treatment",2.013
same,mean A at 565 nm,"[3]; Trastuzumab 0.2 μM, pre-treated with 13 μg/ml LGT-E",1.892
same,mean A at 565 nm,"[3]; Trastuzumab 0.667 μM, no LGT-E pre-treatment",2.058
same,mean A at 565 nm,"[3]; Trastuzumab 0.667 μM, pre-treated with 13 μg/ml LGT-E",1.901
same,mean A at 565 nm,"[3]; Trastuzumab 2 μM, no LGT-E pre-treatment",2.126
same,mean A at 565 nm,"[3]; Trastuzumab 2 μM, pre-treated with 13 μg/ml LGT-E",2.020
same,mean A at 565 nm,"[3]; Trastuzumab 6.67 μM, no LGT-E pre-treatment",2.050
same,mean A at 565 nm,"[3]; Trastuzumab 6.67 μM, pre-treated with 13 μg/ml LGT-E",1.546
same,mean A at 565 nm,"[3]; Trastuzumab 20 μM, no LGT-E pre-treatment",1.682
same,mean A at 565 nm,"[3]; Trastuzumab 20 μM, pre-treated with 13 μg/ml LGT-E",1.013
same,mean A at 565 nm,"[3]; Trastuzumab 66.7 μM, no LGT-E pre-treatment",1.941
same,mean A at 565 nm,"[3]; Trastuzumab 66.7 μM, pre-treated with 13 μg/ml LGT-E",1.056
same,mean A at 565 nm,"[3]; Trastuzumab 200 μM, no LGT-E pre-treatment",1.960
same,mean A at 565 nm,"[3]; Trastuzumab 200 μM, pre-treated with 13 μg/ml LGT-E",1.538
